Reference: patent US10973906B2, “Therapeutic peptides and vaccines” (priority 2005, dated 2021)

Conditions: electron microscopy

In the case of ASTTTNYT [Peptide T], the fibril formation is reported as “formed fibrils”.
